Source: the supplement of paper PMC7108870

How the values were obtained:
[1] = test system: HEK293sieSTAT3(Y640F); assay: drug sensitivity score (DSS), cytotoxicity CellTox Green (DSS (dimensionless)); higher = more cytotoxic; extreme values may be limits of the assay; settings: 72 h; STAT3 variant: Y640F (constitutively active)
Method in brief: (§1)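 In 384-well plates with acoustically pre-plated compounds (5 concentrations, 10-fold dilutions), 20 μl of HEK293 cells at 100,000 cells/ml were added; the cells overexpressed wild-type or mutant STAT3 and carried a STAT3-dependent luciferase reporter. Incubation lasted 72 hours at 37°C and 5% CO2 before sequential CellTox Green (485/520 nm) and CellTiter-Glo reads on a PHERAstar FS. After normalisation to negative and positive control wells, Breeze was used to derive a drug sensitivity score from the dose-response curve area.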

[2] = test system: HEK293sieSTAT3(wt); assay: as above; settings: 72 h; STAT3 variant: wild type
Method in brief: as §1

[3] = test system: HEK293sieSTAT3(Y640F); assay: drug sensitivity score (DSS), viability CellTiter-Glo (DSS (dimensionless)); higher = more growth inhibition; extreme values may be limits of the assay; settings: 72 h; STAT3 variant: Y640F (constitutively active)
Method in brief: as §1

[4] = test system: HEK293sieSTAT3(wt); assay: as above; settings: 72 h; STAT3 variant: wild type
Method in brief: as §1

`NCc1ccc(OCCCc2sc(-c3ccc4c(c3)/C(=N/Nc3nc5ccccc5s3)CCC4)nc2C(=O)O)cc1` [WEHI-539] (top concentration tested 2500 nM) gave a drug sensitivity score [1] of 0, a drug sensitivity score [2] of 0.89 and a drug sensitivity score [3] of 0. It also gave a drug sensitivity score [4] of 0.
